Results reported in paper PMC9001978, “Determining the Effects of Differential Expression of GRKs and β-arrestins on CLR-RAMP Agonist Bias” (Frontiers in Physiology, 2022).

Test system: HEK293T cells
Assay: cAMP accumulation in HEK293T cells with endogenous CLR and RAMPs
Type: cell-based
Conditions: far lower potency than expected of CLR with any RAMP

With CC(C)C[C@H](NC(=O)CNC(=O)[C@H](C)NC(=O)[C@H](CC(C)C)NC(=O)[C@H](CCCNC(=N)N)NC(=O)[C@H](Cc1c[nH]cn1)NC(=O)[C@@H](NC(=O)[C@@H](NC(=O)[C@@H]1CSSC[C@H](NC(=O)[C@H](C)N)C(=O)N[C@@H](CC(=O)O)C(=O)N[C@@H]([C@@H](C)O)C(=O)N[C@@H](C)C(=O)N[C@@H]([C@@H](C)O)C(=O)N1)C(C)C)[C@@H](C)O)C(=O)N[C@@H](CC(C)C)C(=O)N[C@@H](CO)C(=O)N[C@@H](CCCNC(=N)N)C(=O)N[C@@H](CO)C(=O)NCC(=O)NCC(=O)N[C@H](C(=O)N[C@H](C(=O)N[C@@H](CCCCN)C(=O)N[C@@H](CC(N)=O)C(=O)N[C@@H](CC(N)=O)C(=O)N[C@@H](Cc1ccccc1)C(=O)N[C@H](C(=O)N1CCC[C@H]1C(=O)N[C@H](C(=O)N[C@@H](CC(N)=O)C(=O)N[C@H](C(=O)NCC(=O)N[C@@H](CO)C(=O)N[C@@H](CCCCN)C(=O)N[C@@H](C)C(=O)N[C@@H](Cc1ccccc1)C(N)=O)C(C)C)[C@@H](C)O)C(C)C)C(C)C)C(C)C [CGRP, calcitonin gene-related peptide] the “cAMP response via endogenous low levels of CLR and RAMPs” value was “small response”.
